Assay results: patent publication US10238658B2, “1-pyrazolyl-3-(4-((2-anilinopyrimidin-4-yl) oxy) napththalen-1-yl) ureas as p38 MAP kinase inhibitors” (Respivert Limited, priority 2011, dated 2019)

Test system: IL-8
Assay: LPS-induced IL-8 release in d-U937 cells
Format: cell-based
Details: Homo sapiens, dU937, dU937 cells
Procedure: U937 cells, a human monocytic cell line, were differentiated into macrophage-type cells by incubation with PMA (100 ng/mL) for 48 to 72 hr. Cells were pre-incubated with final concentrations of test compound for 2 hr and were then stimulated with LPS (0.1 μg/mL; from E. Coli: O111:B4, Sigma) for 4 hr. The supernatant was collected for determination of TNFα and IL-8 concentrations by sandwich ELISA (Duo-set, R&D systems). […] The relative 50% effective concentration (REC50) was determined from the resultant concentration-response curve. The inhibition of IL-8 production was calculated at each concentration of test compound by comparison with vehicle control.

Cc1ccc(-n2nc(C(C)(C)C)cc2NC(=O)Nc2ccc(Oc3ccnc(Nc4ccccc4)n3)c3ccccc23)cc1 [Example 1, 1-(3-(tert-Butyl)-1-(p-tolyl)-1H-pyrazol-5-yl)-3-(4-(2-(phenylamino)pyrimidin-4-yloxy)naphthalen-1-yl)urea]
IC50: 2.2 nM
